Reference: patent US20250304587A1, “WEE1 INHIBITOR, PREPARATION THEREFOR AND USE THEREOF” (JIANGSU TASLY DIYI PHARMACEUTICAL CO., LTD., priority 2022, published 2025)

Protein sequences, listed by entry. Tags and fused reporters are not part of them.
UniProt P30291, whole entry: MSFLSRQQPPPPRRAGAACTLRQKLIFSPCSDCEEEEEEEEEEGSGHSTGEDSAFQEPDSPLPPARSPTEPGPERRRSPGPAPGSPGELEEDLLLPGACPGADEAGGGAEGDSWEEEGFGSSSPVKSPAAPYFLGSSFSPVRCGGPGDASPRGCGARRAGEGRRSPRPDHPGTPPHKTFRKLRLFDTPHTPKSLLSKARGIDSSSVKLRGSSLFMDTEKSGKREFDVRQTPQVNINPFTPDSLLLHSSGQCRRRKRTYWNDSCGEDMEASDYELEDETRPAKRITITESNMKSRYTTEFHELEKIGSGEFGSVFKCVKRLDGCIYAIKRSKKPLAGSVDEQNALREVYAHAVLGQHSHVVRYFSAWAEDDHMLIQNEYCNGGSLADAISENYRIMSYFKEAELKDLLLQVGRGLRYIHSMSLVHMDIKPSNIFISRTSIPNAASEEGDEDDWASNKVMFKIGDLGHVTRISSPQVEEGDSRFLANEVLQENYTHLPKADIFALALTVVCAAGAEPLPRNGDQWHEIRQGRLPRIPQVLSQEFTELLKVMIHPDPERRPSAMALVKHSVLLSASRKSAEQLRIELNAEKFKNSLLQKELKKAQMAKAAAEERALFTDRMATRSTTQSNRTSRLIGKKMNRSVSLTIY

Experiments:
[1] = target: Wee1 protein (Homo sapiens (Human), UniProt P30291); assay: TR-FRET binding of compound to Wee1 protein and Tracer 178; conditions: read-out: IC50, inhibitory activity against Wee1 kinase, Tracer 178
[2] = test system: BxPC3 cells; assay: Cell Titer-Glo anti-proliferation, BxPC3 cells; conditions: read-out: Anti-proliferative activity BxPC3 (IC50 class), 3 days
[3] = test system: OVCAR-3 cells; assay: Cell Titer-Glo anti-proliferation, OVCAR-3 cells; conditions: read-out: Anti-proliferative activity OVCAR-3 (IC50 class), 3 days
[4] = test system: HT-29 cells; assay: Cell Titer-Glo anti-proliferation, HT-29 cells; conditions: read-out: Anti-proliferative activity HT-29 (IC50 class), 3 days
[5] = test system: HK2 cells; assay: Cell Titer-Glo anti-proliferation, normal cells HK2; conditions: read-out: IC50 HK2
[6] = test system: HUVEC cells; assay: Cell Titer-Glo anti-proliferation, normal cells HUVEC; conditions: read-out: IC50 HUVEC

Row | Compound | IC50 [1] [nM] | IC50 [2] [nM] | IC50 [3] [nM] | IC50 [4] [nM] | IC50 [5] [nM] | IC50 [6] [nM]
1 | [2H]C1(O)c2nc(-n3c4nc(Nc5ccc(N6CCN(C)CC6)cc5)ncc4c(=O)n3CC=C)ccc2CC12CC2 (stereo not shown) | < 5 | 1000 to 2000 | 1000 to 2000 | 1000 to 2000 |  | 
2 | C=CCn1c(=O)c2cnc(Nc3ccc(N4CC5CN(C)CC5C4)cc3)nc2n1-c1ccc2c(n1)C(O)(C(F)(F)F)C1(CC2)CC1 (stereo not shown) | 5 to 10 | 100 to 1000 | 100 to 1000 | 100 to 1000 | 470 | 660
